Tested on: ADP-ribose
Assay: purified protein, by the assay type
Conditions: pH 7.0
[1] = other: substrate of NPPase from rice leaves, 37.0 °C

| Substance | Km (other: substrate of NPPase from barley leaves) [µM] | Km [1] [µM] | Vmax [1] [µmol/min/mg] | kcat/Km [1] [M⁻¹ s⁻¹] |
| --- | --- | --- | --- | --- |
| NPPase from barley leaves (Hordeum vulgare) | 2400 | – | – | – |
| NPPase from rice leaves (Oryza sativa Japonica Group) | – | 1430 | 317 | 248000 |

Source: patent publication US20060242739A1, “Plant nucleotide-sugar pyrophosphatase/phosphodiesterase (nppase), method of obtaining same and use of same in the production of assay devices and in the production of transgenic plants” (Universidad Publica De Navarra, priority 2002, published 2006)
